Consider 1 compound from patent US20260008995A1, “ISOLATED CHRISTENSENELLA, COMPOSITIONS COMPRISING THE SAME, AND USES THEREOF” (MOON (GUANGZHOU) BIOTECH CO., LTD., priority 2023, published 2026).

Molecules are shown by their SMILES.

This experiment relates to type II diabetic mice (db/db). The experiment is described as follows: combination of MNH05119 and metformin in type II diabetic model mice (Example 7). It counts as in vivo, BKS-Leprem2Cd479/Gpt (db/db) mice. To be noted: Day27, MNH05119 2×10^10 CFU/mouse twice daily, metformin 250 mg/kg once daily, oral gavage.

For the compound `CN(C)C(=N)N=C(N)N` [metformin], the “reduction of AUC-OGTT compared to negative control group” value was 19.2%.
